Laboratory results taken from publication PMC11057141, “Untangling the mess of CGRP levels as a migraine biomarker: an in-depth literature review and analysis of our experimental experience” (The Journal of Headache and Pain, 2024).

Columns and labels:
[1] = Long-term storage of serum at -80°C, sandwich ELISA; assay type: in vitro ADME; conditions: human serum, ELISA Abbexa (alpha) / CUSABIO (beta), mean ± SD
Protocol: We tested 4 different ELISA kit references with serum samples, 2 based on competitive ELISA (Biorbyt, UK, ref: orb438605; BMA Biomedicals, Switzerland, ref: S-1198), specifically designed for the detection of total-CGRP, and 2 based on ELISA sandwich (Abbexa, UK, ref: abx257902; CUSABIO, China, ref: CSB-E08210h), designed for the detection of alpha and beta-CGRP, respectively. All 4 of these products were assayed multiple times (at least 4 for each kit reference) to analyse the optimal dilutions of the samples, their reproducibility and their reported concentrations. All the procedures were carried out strictly following the manufacturer’s instructions of use of their products, they were performed by the same researcher, using the same equipment, and in the same facilities. Regarding the last step of the ELISA processes, in which manufacturers give a window of time, specifying that the user must determine the optimum, we incubated the substrate for 15 min for alpha-CGRP and for 20 min for beta-CGRP. All the samples were measured in duplicate, obtained from morning blood extractions, 9–12 am, from patients in a fast of at least 12h. […] A standard curve was generated for every single batch, and they were calculated using a 4-parameter logistic (4-PL) regression with r^2 > 0.999. […]

[2] = Influence of sample processing time: serum kept at 4°C before freezing at -80°C, sandwich ELISA; assay type: in vitro ADME; conditions: human serum, no peptidase inhibitor, ELISA Abbexa (alpha) / CUSABIO (beta), mean ± SD, 6 subjects, triplicate
Protocol: We tested 4 different ELISA kit references with serum samples, 2 based on competitive ELISA (Biorbyt, UK, ref: orb438605; BMA Biomedicals, Switzerland, ref: S-1198), specifically designed for the detection of total-CGRP, and 2 based on ELISA sandwich (Abbexa, UK, ref: abx257902; CUSABIO, China, ref: CSB-E08210h), designed for the detection of alpha and beta-CGRP, respectively. All 4 of these products were assayed multiple times (at least 4 for each kit reference) to analyse the optimal dilutions of the samples, their reproducibility and their reported concentrations. All the procedures were carried out strictly following the manufacturer’s instructions of use of their products, they were performed by the same researcher, using the same equipment, and in the same facilities. Regarding the last step of the ELISA processes, in which manufacturers give a window of time, specifying that the user must determine the optimum, we incubated the substrate for 15 min for alpha-CGRP and for 20 min for beta-CGRP. All the samples were measured in duplicate, obtained from morning blood extractions, 9–12 am, from patients in a fast of at least 12h. These samples were let to clot for 10–15 min, centrifuged at 3500 rpm for 10 min and then immediately stored at -80°C until assayed. A standard curve was generated for every single batch, and they were calculated using a 4-parameter logistic (4-PL) regression with r^2 > 0.999.
We recruited 6 individuals without history of migraine and subjective absence of headache at the day of the sampling (50% male; age range: 24–65 years). […] The blood was then let to clot for 10 min at room temperature, then centrifuged at 3500 rpm for 10 min to obtain serum. Serum was divided into 4 tubes. First one was immediately stored at -80°C, the other three were kept in the refrigerator at 4°C for, 2, 4 and 24 h respectively before frozen. None of the samples were added peptidase inhibitor. These samples were measured by triplicate.

Which “serum concentration, measured before one month of storage at -80°C” value ([1]; 11 samples) does the source give for “alpha-CGRP: endogenous neuropeptide, result of alternative splicing of the calcitonin gene (CALCA) transcript, 37 amino acids” here?
The value was 0.0423 ± 0.0151 ng/mL.

And the “serum concentration after more than 6 months of storage at -80°C” value ([1]; same 11 samples, p < 0.01 vs first measurement)?
Its value is 0.0286 ± 0.0113 ng/mL.

What about the “serum concentration after 2 h at 4°C” value ([2]; 2 h at 4°C before -80°C) of the same substance?
The value was 0.0299 ± 0.0186 ng/mL.

And the “serum concentration after 4 h at 4°C” value ([2]; 4 h at 4°C before -80°C)?
The value was 0.0304 ± 0.0182 ng/mL.

What about the “serum concentration after 24 h at 4°C” value ([2]; 24 h at 4°C before -80°C) of the same substance?
The value was 0.0302 ± 0.0196 ng/mL.

What about the “serum concentration, deep frozen right away” value ([2]; clot 10 min RT, 3500 rpm 10 min, immediately -80°C) of the same substance?
Its value is 0.0292 ± 0.0206 ng/mL.
